Results on 13 compounds are retold here after US9085561B2, “Cyclic urea- or lactam-substituted quinoxaline-type piperidines as ORL-1 modulators” (priority 2012, dated 2015).

Bounds are passed on as bounds.

For test [1], the target named is T1, human opioid receptor-like (ORL-1) (Homo sapiens, UniProt P41146). Put plainly: In vitro ORL-1 receptor [35S]GTPγS functional assay. Particulars: procedure of Example 38; for EC50: read-out: GTPγS ORL-1 EC50 [mean ± SEM]. It counts as biochemical.
For test [2], the target named is T2, human μ-opioid receptor (Homo sapiens, UniProt P35372). Put plainly: In vitro mu-opioid receptor binding assay ([3H]-diprenorphine displacement). Particulars: read-out: Ki [Average ± Std Deviation] Opioid Receptor Mu; binding to mu-opioid receptor, procedure of Example 39.
In test [3] the target is T2, human μ-opioid receptor. Put plainly: In vitro mu-opioid receptor [35S]GTPγS functional assay. The class given is biochemical. The conditions noted are these: read-out: GTPγS Opioid Receptor EC50 Mu [mean ± SEM]; procedure of Example 40.
Test [4] concerns the target T3, kappa opioid receptor (Homo sapiens, UniProt P41145). The experiment in a line: In vitro kappa-opioid receptor binding assay ([3H]-U69,593 displacement). Particulars: read-out: Ki [Average ± Std Deviation] Opioid Receptor Kappa; binding to kappa-opioid receptor, procedure of Example 41.
Test [5] addresses recombinant delta opioid receptor expressed in CHO-K1 cells (Homo sapiens, UniProt P41143). The experiment in a line: In vitro delta-opioid receptor binding assay ([3H]-Naltrindole displacement). The conditions noted are these: read-out: Ki [Average ± Std Deviation] Opioid Receptor Delta; binding to delta-opioid receptor, procedure of Example 43.
The target in test [6] is T3, kappa opioid receptor. Put plainly: In vitro kappa-opioid receptor [35S]GTPγS functional assay. The conditions noted are these: read-out: GTPγS Opioid Receptor EC50 Kappa [mean ± SEM]; procedure of Example 42.
The target in test [7] is T1, human opioid receptor-like (ORL-1). Put plainly: In vitro ORL-1 receptor binding assay ([3H]-nociceptin displacement). The conditions noted are these: read-out: Ki [Average ± Std Deviation] ORL-1; binding to ORL-1 receptor, procedure of Example 37.
Test [8] concerns the target human δ-opioid receptors (Homo sapiens, UniProt P41143). Put plainly: In vitro delta-opioid receptor [35S]GTPγS functional assay. The conditions noted are these: read-out: GTPγS Opioid Receptor EC50 Delta [mean ± SEM]; procedure of Example 44.

On to `C[C@@H]1C[C@@H]2C[C@H](C1)C[C@@H](N1[C@@H]3CCC[C@H]1C[C@@H](n1c(=O)c(N4C(=O)NC(C)(C)C4=O)nc4ccccc41)C3)C2` [Compound B47a], for which the “GTPγS ORL-1 Emax [mean ± SEM]” value in test [1] amounted to 36 ± 3%. The results for the EC50 in test [1], in test [3] and in test [6] were 4.7 nM, more than 20000 nM and more than 20000 nM, respectively. Also, the Ki worked out at 5.1 nM in test [2], 0.6 nM in test [4], 3610 nM in test [5] and 2 nM in test [7].

Turning to `O=c1cnn(-c2nc3ccccc3n([C@H]3C[C@H]4CC[C@@H](C3)N4[C@@H]3C[C@@H]4CCCC[C@@H](C4)C3)c2=O)c(=O)[nH]1` [Compound N9b, 2-(4-((1R,3R,5S)-8-((1R,6S,8s)-bicyclo[4.3.1]decan-8-yl)-8-azabicyclo[3.2.1]octan-3-yl)-3-oxo-3,4-dihydroquinoxalin-2-yl)-1,2,4-triazine-3,5(2H,4H)-dione], the “GTPγS ORL-1 Emax [mean ± SEM]” value in test [1] is 27.7 ± 1.2%. The EC50 in test [1] is 10.5 nM; in test [3] it was more than 20000 nM; in test [6], more than 20000 nM. The Ki in test [2] worked out at 152 nM; in test [4], 143 nM; in test [5] it was 5520 nM; in test [7], 4.2 nM.

For the compound `C[C@@H]1C[C@@H]2C[C@H](C1)C[C@@H](N1[C@@H]3CCC[C@H]1C[C@@H](n1c(=O)c(-c4c[nH]c(=O)cn4)nc4ccccc41)C3)C2` [Compound U052, 1-((1R,1′R,3r,3′R,5S,5′S,7S)-7-methyl-[3,9′-bi(9′-azabicyclo[3.3.1]nonan)]-3′-yl)-3-(5-oxo-4,5-dihydropyrazin-2-yl)quinoxalin-2(1H)-one], the “GTPγS ORL-1 Emax [mean ± SEM]” value in test [1] came to 28.3 ± 3.7%. Moreover, the EC50 in test [1] was 2.54 nM; in test [3], more than 20000 nM; in test [6], more than 20000 nM; in test [8], more than 20000 nM. The Ki in test [2] is 14.5 nM; in test [4], 58.3 nM; in test [5], 669 nM; in test [7], 1.07 nM.

Take `C[C@@H]1C[C@@H]2C[C@H](C1)C[C@@H](N1[C@@H]3CCC[C@H]1C[C@@H](n1c(=O)c(-c4ccc(=O)[nH]c4)nc4ccccc41)C3)C2` [Compound U060, 1-((1R,1′R,3r,3′R,5S,5′S,7S)-7-methyl-[3,9′-bi(9′-azabicyclo[3.3.1]nonan)]-3′-yl)-3-(6-oxo-1,6-dihydropyridin-3-yl)quinoxalin-2(1H)-one]: the “GTPγS ORL-1 Emax [mean ± SEM]” value in test [1] is reported as 65.3 ± 3.6%. The EC50 in test [1] is 0.48 nM; in test [3], more than 20000 nM; in test [6] it was more than 20000 nM. The Ki in test [2] worked out at 6.7 nM; in test [4], 3.47 nM; in test [5], 4650 nM; in test [7], 0.5 nM.

Regarding `C[C@@H]1C[C@@H]2C[C@H](C1)C[C@@H](N1[C@@H]3CCC[C@H]1C[C@@H](n1c(=O)c(-c4c[nH]c(=O)c(C(N)=O)c4)nc4ccccc41)C3)C2` [Compound U063, 5-(4-((1R,1′R,3r,3′R,5S,5′S,7S)-7-methyl-[3,9′-bi(9′-azabicyclo[3.3.1]nonan)]-3′-yl)-3-oxo-3,4-dihydroquinoxalin-2-yl)-2-oxo-1,2-dihydropyridine-3-carboxamide], the “GTPγS ORL-1 Emax [mean ± SEM]” value in test [1] came to 50.7 ± 6.2%. Besides, the EC50 in test [1] was 3.12 nM; in test [3], 3630 nM; in test [6], 6980 nM. The Ki in test [2] was found to be 16.1 nM; in test [4], 2.9 nM; in test [5] it was 10500 nM; in test [7], 1.03 nM.

As to `C[C@@H]1C[C@@H]2C[C@H](C1)C[C@@H](N1[C@@H]3CCC[C@H]1C[C@@H](n1c(=O)c(-c4c[nH]c(=O)c(C(=O)O)c4)nc4ccccc41)C3)C2` [Compound U064, 5-(4-((1R,1′R,3r,3′R,5S,5′S,7S)-7-methyl-[3,9′-bi(9′-azabicyclo[3.3.1]nonan)]-3′-yl)-3-oxo-3,4-dihydroquinoxalin-2-yl)-2-oxo-1,2-dihydropyridine-3-carboxylic acid], the “GTPγS ORL-1 Emax [mean ± SEM]” value in test [1] is 38.7 ± 4.3%. Besides, the EC50 in test [1] was 1.97 nM; in test [3], more than 20000 nM; in test [6], more than 20000 nM. The Ki came out at 7.35 nM in test [2], 95.8 nM in test [4], 15900 nM in test [5] and 1.12 nM in test [7].

`Nc1ccn(-c2nc3ccccc3n([C@H]3C[C@H]4CC[C@@H](C3)N4[C@@H]3C[C@@H]4CCCC[C@@H](C4)C3)c2=O)c(=O)n1` [Compound U066, 3-(4-amino-2-oxopyrimidin-1(2H)-yl)-1-((1R,3R,5S)-8-((1R,6S,8s)-bicyclo[4.3.1]decan-8-yl)-8-azabicyclo[3.2.1]octan-3-yl)quinoxalin-2(1H)-one]: in test [1], the “GTPγS ORL-1 Emax [mean ± SEM]” value was 39.7 ± 2.2%. The EC50 is 5.47 nM in test [1], 95.2 nM in test [3] and more than 20000 nM in test [6]. Besides, the Ki in test [2] is 51 nM; in test [4] it was 9.7 nM; in test [5], more than 20000 nM; in test [7], 0.63 nM.

As for `Nc1nc(=O)n(-c2nc3ccccc3n([C@H]3C[C@H]4CCC[C@@H](C3)N4[C@@H]3C[C@@H]4CCCC[C@@H](C4)C3)c2=O)cc1F` [Compound U067], the “GTPγS ORL-1 Emax [mean ± SEM]” value in test [1] is recorded as 28.5 ± 0.9%. Further, the EC50 in test [1] is 2.45 nM; in test [3], more than 20000 nM; in test [6] it was more than 20000 nM. Also, the Ki in test [2] was determined as 14.4 nM; in test [4] it was 1.12 nM; in test [5], 17600 nM; in test [7] it was 0.29 nM.

`O=C(O)Cn1c(-c2nc3ccccc3n([C@H]3C[C@H]4CC[C@@H](C3)N4[C@@H]3C[C@@H]4CCCC[C@@H](C4)C3)c2=O)cccc1=O` [DD1b(iii), 2-(6-(4-((1R,3R,5S)-8-((1R,6S,8s)-bicyclo[4.3.1]decan-8-yl)-8-azabicyclo[3.2.1]octan-3-yl)-3-oxo-3,4-dihydroquinoxalin-2-yl)-2-oxopyridin-1(2H)-yl)acetic acid]: in test [1], the “GTPγS ORL-1 Emax [mean ± SEM]” value came to 31.7 ± 2.7%. Further, the values for the EC50 in test [1], in test [3] and in test [6] were 94.7 nM, 87 nM and more than 20000 nM, respectively. For the same compound, the Ki in test [2] was 243 nM; in test [4], 143 nM; in test [5] it was 3100 nM; in test [7], 3.54 nM.

As for `O=C(O)Cn1c(-c2nc3ccccc3n([C@H]3C[C@H]4CCC[C@@H](C3)N4[C@@H]3C[C@@H]4CCCC[C@@H](C4)C3)c2=O)cccc1=O` [EE1b(iii), 2-(6-(4-((1R,3R,5S)-9-((1R,6S,8s)-bicyclo[4.3.1]decan-8-yl)-9-azabicyclo[3.3.1]nonan-3-yl)-3-oxo-3,4-dihydroquinoxalin-2-yl)-2-oxopyridin-1(2H)-yl)acetic acid], in test [1], the “GTPγS ORL-1 Emax [mean ± SEM]” value amounted to 31.3 ± 2.3%. The EC50 in test [1] is 6.2 nM; in test [3], more than 20000 nM; in test [6], more than 20000 nM; in test [8], 863 nM. Further, the Ki in test [2] is 87 nM; in test [4], 23.7 nM; in test [5], 877 nM; in test [7], 0.8 nM.

For `O=c1[nH]nc(-c2nc3ccccc3n([C@H]3C[C@H]4CCC[C@@H](C3)N4[C@@H]3C[C@@H]4CCCC[C@@H](C4)C3)c2=O)[nH]1` [EE6b(i)(i), 1-((1R,3R,5S)-9-((1R,6S,8s)-bicyclo[4.3.1]decan-8-yl)-9-azabicyclo[3.3.1]nonan-3-yl)-3-(5-oxo-4,5-dihydro-1H-1,2,4-triazol-3-yl)quinoxalin-2(1H)-one], the “GTPγS ORL-1 Emax [mean ± SEM]” value in test [1] came out at 33 ± 1%. For the same compound, the figures for the EC50 in test [1], in test [3] and in test [6] were 1.03 nM, 12.5 nM and more than 20000 nM, respectively. Also, the Ki was 28.8 nM in test [2], 22.6 nM in test [4], 9810 nM in test [5] and 0.15 nM in test [7].

For `O=C(O)Cn1c(-c2nc3ccccc3n([C@H]3C[C@H]4CC[C@@H](C3)N4[C@H]3C[C@@H]4CCC[C@@H](C4)C3)c2=O)cccc1=O` [Q1a(iii), 2-(6-(4-((1R,3R,5S)-8-((1R,3r,5S)-bicyclo[3.3.1]nonan-3-yl)-8-azabicyclo[3.2.1]octan-3-yl)-3-oxo-3,4-dihydroquinoxalin-2-yl)-2-oxopyridin-1(2H)-yl)acetic acid], the “GTPγS ORL-1 Emax [mean ± SEM]” value in test [1] amounted to 35.0 ± 1.2%. Besides, the results for the EC50 in test [1], in test [3] and in test [6] were 87 nM, more than 20000 nM and more than 20000 nM, respectively. The Ki in test [2] amounted to 293 nM; in test [4], 138 nM; in test [5], 7040 nM; in test [7], 12.8 nM.

On to `O=c1cncc(-c2nc3ccccc3n([C@H]3C[C@H]4CCC[C@@H](C3)N4[C@H]3C[C@@H]4CCC[C@@H](C4)C3)c2=O)[nH]1` [R3a(i), 1-((1R,1′R,3r,3′R,5S,5′S)-[3,9′-bi(9′-azabicyclo[3.3.1]nonan)]-3′-yl)-3-(6-oxo-1,6-dihydropyrazin-2-yl)quinoxalin-2(1H)-one], for which the “GTPγS ORL-1 Emax [mean ± SEM]” value in test [1] is reported as 36.8 ± 2.5%. In addition, the EC50 in test [1] is 7.5 nM; in test [3] it was more than 20000 nM; in test [6], more than 20000 nM. Also, the Ki in test [2] is 151 nM; in test [4], 93.4 nM; in test [5], more than 20000 nM; in test [7], 3.05 nM.
